{"source": "ChEMBL document CHEMBL1909609", "about": "“Synthesis of purine modified 2'-C-methyl nucleosides as potential anti-HCV agents” (Bioorg Med Chem Lett, 2011)", "molecular_target": "T1, Adenosine deaminase (Homo sapiens, UniProt P00813)", "T1 sequence (P00813 whole entry)": "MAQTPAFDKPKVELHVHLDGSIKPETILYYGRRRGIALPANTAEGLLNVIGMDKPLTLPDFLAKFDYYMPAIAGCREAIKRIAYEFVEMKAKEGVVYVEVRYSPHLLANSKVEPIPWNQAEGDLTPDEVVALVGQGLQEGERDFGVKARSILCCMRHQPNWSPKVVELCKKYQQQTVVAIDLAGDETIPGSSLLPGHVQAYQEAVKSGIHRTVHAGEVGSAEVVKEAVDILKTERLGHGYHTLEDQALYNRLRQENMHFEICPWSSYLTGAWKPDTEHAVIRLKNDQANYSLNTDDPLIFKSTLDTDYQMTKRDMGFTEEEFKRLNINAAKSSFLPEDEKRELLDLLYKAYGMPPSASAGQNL", "test": "Inhibition of adenosine deaminase assessed as conversion of adenosine to inosine"}
{"smiles": "C[C@@]1(O)[C@H](O)[C@@H](CO)O[C@H]1n1cnc2c(N)nc(-n3ccnn3)nc21", "values": [{"measurement": "IC50", "value": 3.7, "unit": "µM"}]}
